Molecules are shown by their SMILES. The entries are a selection whose mix differs from that of the whole data set. Activity calls are given as the source filed them. No stated cut-off is given here; in the data, active means activation above about 47%; inactive means the rest.

Protein sequences, listed by entry. Tags and fused reporters are not part of them.
UniProt P35869, whole entry: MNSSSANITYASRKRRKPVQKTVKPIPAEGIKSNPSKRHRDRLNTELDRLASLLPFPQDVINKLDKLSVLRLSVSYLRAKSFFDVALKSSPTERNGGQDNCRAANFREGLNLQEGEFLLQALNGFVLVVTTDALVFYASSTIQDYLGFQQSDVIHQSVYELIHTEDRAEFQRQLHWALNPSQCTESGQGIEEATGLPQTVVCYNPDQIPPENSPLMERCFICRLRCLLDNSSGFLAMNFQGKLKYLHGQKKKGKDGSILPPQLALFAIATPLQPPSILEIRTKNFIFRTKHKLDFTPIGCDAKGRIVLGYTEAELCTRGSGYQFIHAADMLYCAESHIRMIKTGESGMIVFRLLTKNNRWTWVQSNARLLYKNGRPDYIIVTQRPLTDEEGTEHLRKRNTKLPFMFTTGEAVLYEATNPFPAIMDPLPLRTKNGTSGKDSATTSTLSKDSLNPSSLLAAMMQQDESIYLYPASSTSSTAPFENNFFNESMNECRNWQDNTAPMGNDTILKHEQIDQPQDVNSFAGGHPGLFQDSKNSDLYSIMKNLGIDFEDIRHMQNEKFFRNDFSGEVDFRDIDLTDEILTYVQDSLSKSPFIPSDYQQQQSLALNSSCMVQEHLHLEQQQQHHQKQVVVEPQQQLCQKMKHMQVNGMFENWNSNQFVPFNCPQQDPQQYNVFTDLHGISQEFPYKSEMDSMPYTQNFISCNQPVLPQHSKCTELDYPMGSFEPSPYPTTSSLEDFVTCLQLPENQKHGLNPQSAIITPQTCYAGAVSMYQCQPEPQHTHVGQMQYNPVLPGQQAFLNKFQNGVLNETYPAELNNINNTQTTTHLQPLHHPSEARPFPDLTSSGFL

This experiment has as its target Aryl hydrocarbon receptor (Homo sapiens) (UniProt P35869). As to the kind of experiment: AHR activators, primary screen, cell-based, luminescence, luciferase reporter, human (AID 2796).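 Further: 0% = vehicle wells and 100% = reference agonist.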 The conditions noted are these: AHR-responsive luciferase reporter cells, at 5 µM, stronger effect = higher value.
As to `O=C(NCC1(N2CCCCC2)CCCCC1)c1cccc([N+](=O)[O-])c1`, the activation was inactive: -1.64%.

In the case of `O=C(NCC1(N2CCCCC2)CCCCC1)c1ccc(OC(F)F)cc1`, the activation is inactive: 0.59%.

As for `COc1cc(C(=O)NCC2(N3CCCCC3)CCCCC2)ccc1OC(F)F`, the activation is inactive: 0.82%.

On to `O=C(NCC1(N2CCOCC2)CCCCC1)c1cc(=O)[nH]c2ccccc12`, for which the activation is inactive: 6.01%.

For `CN1CCN(CCOC(=O)C(O)(c2ccccc2)c2ccccc2)CC1`, the activation was inactive: -0.59%.

With `COc1ccc(NC2CCN(C(=O)OC(C)(C)C)CC2)cc1`, the activation is inactive: 5.66%.

For `O=C(NCC1(N2CCCCC2)CCCCC1)c1cccc(C(F)(F)F)c1`, the activation is inactive: 4.1%.

Regarding `O=C(NCC1(N2CCOCC2)CCCCC1)c1cc(F)c(F)cc1Cl`, the activation was inactive: 1.97%.

Turning to `COc1cc(OC)c(C(=O)NCC2(N(C)C)CCCCC2)cc1OC`, the activation was inactive: -1.45%.

As for `CC(C)c1ccc(NC2CCN(C(=O)OC(C)(C)C)CC2)cc1`, the activation is inactive: 0.08%.

Consider `CN(C)c1cccc(C(=O)NCC2(N3CCCCC3)CCCCC2)c1`, for which the activation is inactive: 3.25%.

`COc1ccc(CN(CCCl)CCCl)cc1Cl`: the activation is inactive: 0.97%.

With `O=C(NCC1(N2CCCCC2)CCCCC1)c1cncc(Br)c1`, the activation was inactive: 8.4%.

`CN1CCC(Nc2cccc(F)c2)CC1`: the activation was inactive: 4.48%.

In the case of `CSc1ccccc1C(=O)NCC1(N2CCCCC2)CCCCC1`, the activation is inactive: -3.24%.

As for `COc1ccc(C(=O)NCC2(N3CCCCC3)CCCCC2)c(OC)c1OC`, the activation is inactive: -1.11%.

Regarding `CC(C)(C)OC(=O)N1CCC(N(C(=O)c2ccccc2)c2ccc(F)cc2)CC1`, the activation was inactive: 2.91%.

Consider `COc1ccc(C(=O)NCC2(N3CCCCC3)CCCCC2)cc1`, for which the activation was inactive: -1.5%.

On to `O=C(NCC1(N2CCCCC2)CCCCC1)c1cccs1`, for which the activation is inactive: -0.58%.

Consider `O=C(NCC1(N2CCCCC2)CCCCC1)c1ccc(=O)[nH]c1`, for which the activation was inactive: -1.02%.

Regarding `COc1ccc(Cl)cc1C(=O)NCC1(N2CCOCC2)CCCCC1`, the activation is inactive: 4.12%.

For `O=C(OC1CN2CCC1CC2)C1c2ccccc2Oc2ccccc21` (stereo not drawn), the activation is inactive: 0.84%.

As for `O=C(NCC1(N2CCCCC2)CCCCC1)c1ccc(Cl)s1`, the activation was inactive: 0.64%.

For the molecule `N#CC1(Nc2ccccc2)CCN(Cc2ccccc2)CC1`, the activation was inactive: -0.08%.

Take `CCOC(=O)N1CCC(Nc2ccc(OC)cc2)CC1`: the activation is inactive: -3.17%.

For `Cc1cc(C)cc(N(C(=O)c2ccccc2)C2CCN(C(=O)OC(C)(C)C)CC2)c1`, the activation was inactive: 1.16%.

As to `O=C(NCC1(N2CCCCC2)CCCCC1)c1ccc(Cl)nc1`, the activation was inactive: 2.13%.

As to `O=C(NCC1(N2CCOCC2)CCCCC1)c1cc2ccccc2o1`, the activation is inactive: 10.4%.

Consider `COc1ccc(NC2CCN(CCc3ccccc3)CC2)c(OC)c1`, for which the activation is inactive: 0.26%.

For `O=C(NCC1(N2CCCCC2)CCCCC1)c1ccc(F)cc1`, the activation is inactive: -0.36%.

For the molecule `CCOc1ccc(C)cc1CN(CCCl)CCCl`, the activation is inactive: 1.35%.

Regarding `Cc1ccc(OCC(C)C)c(CN(CCCl)CCCl)c1`, the activation is inactive: 0.84%.

For `CCOC(=O)N1CCC(Nc2cccc(C)c2)CC1`, the activation is inactive: -3.4%.

These data come from PubChem BioAssay AID2796 (The Scripps Research Institute Molecular Screening Center, 2010).
